These are literature values, as cited in US20260263624A1, “COMBINATION OF ANTIBODY-DRUG CONJUGATE AND CANCER THERAPY, AND USE THEREOF” (GENEQUANTUM HEALTHCARE (SUZHOU) CO., LTD., priority 2023, published 2026).

This series has as its system patients with mBC or LABC. The conditions noted are these: single-agent T-DM1; cited from earlier work.

As to T-DM1, the patients with thrombocytopenia is 30-55%.
